The target in experiment [1] is h-NK2 (Homo sapiens, UniProt P21452). The experiment can be described thus: Signal transduction (ST), intracellular Ca++ FLIPR, NK2 antagonistic activity. As to the method: (§1) This test evaluates in vitro functional NK1, NK2 and NK3 antagonistic activity. For the measurements of intracellular Ca^++ concentrations the cells were grown on 96-well (black wall/transparent bottom) plates from Costar for 2 days until they reached confluence. The cells were loaded with 2 μM Fluo3 in DMEM containing 0.1% BSA and 2.5 mM probenecid for 1 h at 37° C. They were washed 3× with a Krebs buffer (140 mM NaCl, 1 mM MgCl2×6H2O, 5 mM KCl, 10 mM glucose, 5 mM HEPES; 1.25 mM CaCl2; pH 7.4) containing 2.5 mM probenecid and 0.1% BSA (Ca^++-buffer). The cells were preincubated with a concentration range of antagonists for 20 min at RT and Ca^++-signals after addition of the agonists were measured in a Fluorescence Image Plate Reader (FLIPR from Molecular Devices, Crawley, England). The peak of the Ca^++-transient was considered as the relevant signal and the mean values of corresponding wells were analysed as described below.
(§2) The sigmoidal dose response curves were analysed by computerised curve-fitting, using the GraphPad Program. The EC50-value of a compound is the effective dose showing 50% of maximal effect. For mean curves the response to the agonist with the highest potency was normalised to 100%. For antagonist responses the IC50-value was calculated using non-linear regression. […]

The chains behind the UniProt entries cited, without tags or fusion partners.
UniProt P21452, whole entry: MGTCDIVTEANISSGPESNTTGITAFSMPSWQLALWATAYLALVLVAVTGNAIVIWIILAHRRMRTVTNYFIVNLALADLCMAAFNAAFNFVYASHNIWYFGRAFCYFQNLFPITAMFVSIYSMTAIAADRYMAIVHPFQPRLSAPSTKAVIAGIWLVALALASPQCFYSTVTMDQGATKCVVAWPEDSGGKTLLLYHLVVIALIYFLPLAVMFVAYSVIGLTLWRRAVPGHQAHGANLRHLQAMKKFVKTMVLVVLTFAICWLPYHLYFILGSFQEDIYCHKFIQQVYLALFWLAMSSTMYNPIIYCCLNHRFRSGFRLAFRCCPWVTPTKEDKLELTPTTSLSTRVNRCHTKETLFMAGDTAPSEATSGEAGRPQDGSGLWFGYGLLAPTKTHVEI
UniProt P25103, whole entry: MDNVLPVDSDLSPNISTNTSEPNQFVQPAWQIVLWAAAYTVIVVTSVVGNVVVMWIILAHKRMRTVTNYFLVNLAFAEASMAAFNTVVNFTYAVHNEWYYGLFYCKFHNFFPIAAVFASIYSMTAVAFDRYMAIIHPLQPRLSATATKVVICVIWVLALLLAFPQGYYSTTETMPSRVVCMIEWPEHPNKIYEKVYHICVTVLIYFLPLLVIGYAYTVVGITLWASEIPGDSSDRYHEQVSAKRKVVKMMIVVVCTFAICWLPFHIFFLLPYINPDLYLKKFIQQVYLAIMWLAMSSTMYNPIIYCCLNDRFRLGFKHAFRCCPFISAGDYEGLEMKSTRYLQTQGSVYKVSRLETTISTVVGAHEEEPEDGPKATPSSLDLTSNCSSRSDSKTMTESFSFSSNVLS
UniProt P29371, whole entry: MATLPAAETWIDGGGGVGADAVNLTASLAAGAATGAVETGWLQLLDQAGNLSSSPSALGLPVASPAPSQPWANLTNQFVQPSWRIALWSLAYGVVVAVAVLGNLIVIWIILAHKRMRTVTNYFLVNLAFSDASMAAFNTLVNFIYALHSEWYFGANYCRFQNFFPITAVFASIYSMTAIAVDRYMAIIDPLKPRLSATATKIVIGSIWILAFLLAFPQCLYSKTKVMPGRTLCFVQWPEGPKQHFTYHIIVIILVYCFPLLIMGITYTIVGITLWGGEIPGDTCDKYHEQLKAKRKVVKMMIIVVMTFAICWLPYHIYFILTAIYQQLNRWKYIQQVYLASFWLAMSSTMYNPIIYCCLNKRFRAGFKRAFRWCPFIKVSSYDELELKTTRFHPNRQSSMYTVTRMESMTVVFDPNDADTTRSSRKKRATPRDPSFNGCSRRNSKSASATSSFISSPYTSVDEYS

Experiment [2] concerns the target h-NK1 (Homo sapiens, UniProt P25103). Put plainly: Signal transduction (ST), intracellular Ca++ FLIPR, NK1 antagonistic activity. As to the method:
as §1, §2

Experiment [3] deals with h-NK3 (Homo sapiens, UniProt P29371). The experiment can be described thus: Signal transduction (ST), intracellular Ca++ FLIPR, NK3 antagonistic activity. As to the method: as §1, §2

This is an account of results in US7435736B2, “Substituted 1-piperidin-4-yl-4-azetidin-3-yl-piperazine derivatives and their use as neurokinin antagonists” (Janssen Pharmaceutica, N.V., priority 2002, dated 2008).

As to `CC(C)(C)OC(=O)N1CCC[C@H]1C(=O)N1CC(N2CCN([C@H]3CCN(C(=O)c4cc(C(F)(F)F)cc(C(F)(F)F)c4)[C@H](Cc4ccccc4)C3)CC2)C1`, the “pIC50 h-NK2” value in experiment [1] is listed as 5.71. For the same compound, the “pIC50 h-NK1” value in experiment [2] worked out at 7.46. In addition, the “pIC50 h-NK3” value in experiment [3] was found to be 5.44.
